## Experimental vapor pressure values from OPERA 2.9

Vapor pressure is log10 of mmHg; the set covers 15 to 30 °C, mostly 20 to 25 °C.

structure (SMILES),log vapor pressure (log10 mmHg)
Clc1cc2oc3cc(Cl)c(Cl)cc3c2cc1Cl,-5.245
O=C(Cl)CCCCCl,-0.523
OCC1CO1 (centres undefined),-0.046
C[n+]1ccc(-c2cc[n+](C)cc2)cc1.[Cl-].[Cl-],-7.062
c1ccc(OP(Oc2ccccc2)Oc2ccccc2)cc1,-3.286
Clc1cc(Cl)cc(-c2ccccc2)c1,-3.235
Nc1ccc(-c2ccccc2)cc1,-3.238
OCCN(CCO)C1CCCCC1,-5.104
CCNc1nc(O)nc(NC(C)C)n1,-5.072
O=C(C(F)(F)C(F)(F)F)C(F)(C(F)(F)F)C(F)(F)F,2.391
Clc1ccccc1-c1cccc(Cl)c1Cl,-3.285
ClCc1ccccc1CCl,-1.589
Clc1cccc(-c2ccccc2Cl)c1,-2.975
C#C[C@]1(O)CC[C@H]2[C@@H]3CCC4=CC(=O)CC[C@]4(C)[C@H]3CC[C@@]21C,-13.27
CC(Oc1ccc(Oc2ncc(C(F)(F)F)cc2Cl)cc1)C(=O)O (centres undefined),-8.001
Cc1ccc2nc(-c3ccc(/N=N/C4C(=O)NC(=O)NC4=O)cc3)sc2c1S(=O)(=O)O.OCCN(CCO)CCO,-3.415
Nc1cccc(C(F)(F)F)c1,-0.372
O=[N+]([O-])c1ccc2ccccc2c1,-3.62
CC(CC(=O)NCCCCCC(=O)[O-])CC(C)(C)C.OCC[NH+](CCO)CCO (centres undefined),-4.306
Nc1cc(Cl)ccc1Cl,-0.727
COc1ccc([C@H](C)N)cc1,-1.751
COc1c(Cl)cc(Cl)cc1Cl,-3.265
O=C1CCO1,0.531
CN(C)CCN(C)C,1.088
CC(C)C(=O)Cl,1.631
Clc1cc2oc3cc(Cl)c(Cl)c(Cl)c3c2c(Cl)c1Cl,-7.425
[Na+].[O-]c1nc(Cl)c(Cl)cc1Cl,-7.745
Clc1ccc(-c2c(Cl)c(Cl)cc(Cl)c2Cl)cc1,-4.405
CNC(=O)Oc1ccc(N(C)C)c(C)c1,-4.763
O=[N+]([O-])c1cc(Cl)ccc1Cl,-2.417
CCCCN(C)N=O,-0.222
CCOP(c1ccccc1)c1ccccc1,-2.963
Clc1cc(Cl)c(-c2cc(Cl)c(Cl)c(Cl)c2)c(Cl)c1,-5.435
CC1CC(C)(C)CC(OOC(C)(C)C)(OOC(C)(C)C)C1 (centres undefined),-4.171
CCCCCCCCCCCC(=O)OO,-3.602
Clc1cc(Cl)c2c(c1)Oc1cc(Cl)cc(Cl)c1O2,-6.385
COc1cc(OC)nc(Sc2cccc(Cl)c2C(=O)[O-])n1.[Na+],-10.44
CC1CCC(=O)O1 (centres undefined),-0.413
Clc1cc(Cl)c(-c2c(Cl)c(Cl)cc(Cl)c2Cl)c(Cl)c1Cl,-5.465

Extract of 5 entries:

| structure (SMILES) | log vapor pressure (log10 mmHg) |
|---|---|
| ClCc1ccccc1CCl | -1.589 |
| CC(Oc1ccc(Oc2ncc(C(F)(F)F)cc2Cl)cc1)C(=O)O (centres undefined) | -8.001 |
| C#C[C@]1(O)CC[C@H]2[C@@H]3CCC4=CC(=O)CC[C@]4(C)[C@H]3CC[C@@]21C | -13.27 |
| Clc1cc(Cl)c2c(c1)Oc1cc(Cl)cc(Cl)c1O2 | -6.385 |
| O=[N+]([O-])c1ccc2ccccc2c1 | -3.62 |

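These are experimental values that the OPERA curators gathered from public databases to train and test their QSAR models. One number stands for a compound and property, with no spread given. Method and conditions are not stated for these values. Where a salt, mixture or single isomer is drawn, the source does not say that exactly this form was tested. Some entries may be limits or estimates that an upstream database listed as plain numbers.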

Values as listed in the OPERA 2.9 repository of K. Mansouri.